The experiment has as its system human sarcoma SA-22-0003PDX nude mouse model (malignant fibrous histiocytoma). It counts as in vivo, BALB/c nude mouse. The conditions noted are these: after 5 weeks of administration; anlotinib 3 mg/kg/d intragastric daily, epirubicin 2.5 mg/kg tail vein once weekly; blank control 2.62±0.64 g.

On to `COc1cccc2c1C(=O)c1c(O)c3c(c(O)c1C2=O)C[C@@](O)(C(=O)CO)C[C@@H]3O[C@H]1C[C@H](N)[C@@H](O)[C@H](C)O1` [epirubicin], for which the average tumor weight amounted to 1.20 ± 0.42 g.
Next, `COc1cc2c(Oc3ccc4[nH]c(C)cc4c3F)ccnc2cc1OCC1(N)CC1` [anlotinib, 1-[[[4-(4-fluoro-2-methyl-1H-indol-5-yl)oxy-6-methoxyquinolin-7-yl]oxy]methyl]cyclopropylamine]: 0.71 ± 0.36 g.

These data come from patent US12377089B2, “Quinoline derivative used for soft tissue sarcoma combination therapy” (CHIA TAI TIANQING PHARMACEUTICAL GROUP CO., LTD., priority 2019, dated 2025).
